Results on two compounds are retold here after ChEMBL document CHEMBL1132239, “Tricyclic farnesyl protein transferase inhibitors: crystallographic and calorimetric studies of structure-activity relationships” (J Med Chem, 1999).

Test [1] concerns the target T1, Protein farnesyltransferase (Homo sapiens, UniProt P49354+P49356). Briefly: Inhibition of Farnesyl protein transferase. It counts as protein-complex assay.
In test [2] the target is T1, Protein farnesyltransferase. Briefly: Inhibition of Farnesyltransferase. Type of test: protein-complex assay.

Usually IC50 stands for the concentration needed to halve the response being measured. Read a high IC50 as weaker potency in that assay. For `O=C(Cc1cc[n+]([O-])cc1)N1CCN([C@H]2c3ccc(Cl)cc3CCc3cc(Br)cnc32)CC1`, half-maximal inhibition in test [1] (IC50) required 11 nM.

In the case of `O=C(Cc1ccncc1)N1CCN([C@@H]2c3ccc(Cl)cc3CCc3cccnc32)CC1`, in test [2], it took 500 nM to reach half-maximal inhibition (IC50).
